{"source": "paper PMC5034536", "about": "“Molecular insights into substrate recognition and catalytic mechanism of the chaperone and FKBP peptidyl-prolyl isomerase SlyD” (BMC Biology, 2016)", "molecular_target": "T1, TtSlyDFL (full-length SlyD from Thermus thermophilus) (Thermus thermophilus, UniProt Q5SLE7)", "T1 sequence (Q5SLE7 1-149)": "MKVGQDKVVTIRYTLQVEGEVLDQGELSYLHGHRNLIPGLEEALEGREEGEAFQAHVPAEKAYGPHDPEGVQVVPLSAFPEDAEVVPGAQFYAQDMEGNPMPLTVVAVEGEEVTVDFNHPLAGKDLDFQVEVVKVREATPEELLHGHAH", "test": "ITC binding of peptides to full-length TtSlyD", "details": "ITC two-site model, site 1 (IF domain) stoichiometry; 25 °C; 20 mM HEPES, 100 mM NaCl, pH 7.5", "note": "No end group written: not given here.", "data": [{"substance": "TRYWNPKMKEFIFGA-NH2 [S2-P29E]", "values": [{"measurement": "N1", "value": "0.88 ± 0.02"}]}, {"substance": "TRYANPKMKPFIFGA-NH2 [S2-W23A]", "values": [{"measurement": "N1", "value": "0.76 ± 0.03"}]}, {"substance": "TRYWNAKMKPFIFGA-NH2 [S2-P25A]", "values": [{"measurement": "N1", "value": "0.92 ± 0.01"}]}]}
